## Binding of CDR-mutated scFvs to a peptide of the spike HR2 region

The target is the same throughout: PDVDLGDISGINAS, from the HR2 region of SARS-CoV-2 spike.

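Phage display of a naive human antibody library on the peptide gave the parent. Variants in AAYL52 differ from the parent at up to three CDR positions; double and triple changes were sampled at random. The assay is AlphaSeq: two haploid yeast populations carry antibody and antigen on their surface. Binding brings cells together so that they mate, and sequencing counts the barcode pairs among the diploids. Read counts were normalised to the haploid input and turned into Kd by a linear fit to BCL2-family pairs of known affinity, for each replicate. Mating was done three times.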

Each scFv is VH, a 15-residue (Gly4Ser)3 linker, VL, as in the parent Ab-95, and differs from it in the CDRs of the light chain only.
VH: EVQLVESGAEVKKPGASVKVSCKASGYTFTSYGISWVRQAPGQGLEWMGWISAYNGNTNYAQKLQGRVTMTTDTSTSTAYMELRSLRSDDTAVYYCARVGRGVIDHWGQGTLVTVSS
VL: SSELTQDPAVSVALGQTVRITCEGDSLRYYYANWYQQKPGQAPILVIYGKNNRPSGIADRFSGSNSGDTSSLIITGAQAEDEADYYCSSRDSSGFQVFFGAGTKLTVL

The whole VL of each variant is written out. The Kd shown is the geometric mean over detected replicates; a lower Kd is a better binder. "nd" marks a missing value. The strain was present, yet no cells mated with the target were sequenced in any replicate, which points to weak or no binding.

| VL | Kd | detected |
|---|---|---|
| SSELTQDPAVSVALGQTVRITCFGDSLRYYYANWYQQKPGQAPILVIYGNNNRPSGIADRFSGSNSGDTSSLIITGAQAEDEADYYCSSFDSSGFQVFFGAGTKLTVL | 2.8 µM | 3/3 |
| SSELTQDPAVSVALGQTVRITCEGDSLRYYYANWYQQKPGQAPILVIYGKNNRPSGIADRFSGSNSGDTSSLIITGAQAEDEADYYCDSRDVSGFQVFFGAGTKLTVL | 6.3 µM | 1/3 |
| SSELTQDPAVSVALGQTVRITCEGDSLRYYYAWWYQQKPGQAPILVIYGKNNRPSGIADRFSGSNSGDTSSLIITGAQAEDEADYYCSSRDSSNFQKFFGAGTKLTVL | 22 µM | 2/3 |
| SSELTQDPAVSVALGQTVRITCEGSSLRYPYANWYQQKPGQAPILVIYPKNNRPSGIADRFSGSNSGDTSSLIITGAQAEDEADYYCSSRDSSGFQVFFGAGTKLTVL | 12 µM | 1/3 |
| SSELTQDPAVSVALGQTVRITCEGDSLRYYYYNWYQQKPGQAPILVIYGKTNRSSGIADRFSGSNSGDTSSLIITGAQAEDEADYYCSSRDSSGFQVFFGAGTKLTVL | 2.0 µM | 2/3 |
| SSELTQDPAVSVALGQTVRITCEGMSLRYFYANWYQQKPGQAPILVIYGKNNRPSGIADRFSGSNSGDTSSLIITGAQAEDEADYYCSSRDSSGFQVFFGAGTKLTVL | 4.2 nM | 3/3 |
| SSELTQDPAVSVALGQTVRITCEGDELRYYYANWYQQKPGQAPILVIYGKNNRMSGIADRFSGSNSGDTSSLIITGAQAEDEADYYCSSRDSSGFQVSFGAGTKLTVL | 6.6 µM | 2/3 |
| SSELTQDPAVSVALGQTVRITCEGDSLRYYYANWYQQKPGQAPILVIYGKNNRMWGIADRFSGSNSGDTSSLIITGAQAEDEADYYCQSRDSSGFQVFFGAGTKLTVL | nd | 0/3 |
| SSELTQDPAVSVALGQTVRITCEGPSLRYYYANWYQQKPGQAPILVIYGKNNRPSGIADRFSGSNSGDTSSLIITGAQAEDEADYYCSSRWSSGFQVFFGAGTKLTVL | 110 nM | 3/3 |
| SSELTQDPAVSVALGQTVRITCEGDSLRYSYANWYQQKPGQAPILVIYGKNNRPSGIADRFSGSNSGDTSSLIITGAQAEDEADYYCSSRDSSGCQVFFGAGTKLTVL | 3.2 µM | 2/3 |
| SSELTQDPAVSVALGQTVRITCDGDSLRYYYANWYQQKPGQAPILVIYGKNNRCMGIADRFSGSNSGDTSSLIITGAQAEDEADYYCSSRDSSGFQVFFGAGTKLTVL | 1.3 µM | 3/3 |
| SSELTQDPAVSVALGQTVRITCEGDSLRCYYANWYQQKPGQAPILVIYGHNNRPSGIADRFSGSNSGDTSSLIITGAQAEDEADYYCSSFDSSGFQVFFGAGTKLTVL | 31 µM | 2/3 |
| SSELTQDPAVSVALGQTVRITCEGDSLRYYYANWYQQKPGQAPILVIYGKNKRPSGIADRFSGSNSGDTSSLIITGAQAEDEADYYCSSPDSSGFQSFFGAGTKLTVL | 11 µM | 1/3 |
| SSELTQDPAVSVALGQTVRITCEGDSLRIYYANWYQQKPGQAPILVIYGKRNKPSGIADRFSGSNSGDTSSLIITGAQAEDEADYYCSSRDSSGFQVFFGAGTKLTVL | 28 µM | 3/3 |
| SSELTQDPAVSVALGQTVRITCEGCSLRYYQANWYQQKPGQAPILVIYGKNNRPSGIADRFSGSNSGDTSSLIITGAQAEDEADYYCFSRDSSGFQVFFGAGTKLTVL | 7.5 µM | 2/3 |
| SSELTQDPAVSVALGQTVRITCEGDSLRYYYANWYQQKPGQAPILVIYGKSNRPSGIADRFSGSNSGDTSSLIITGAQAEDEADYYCSSRDSSGPGVFFGAGTKLTVL | 1.4 µM | 3/3 |
| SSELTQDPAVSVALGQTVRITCEGDSLRYYYANWYQQKPGQAPILVIYGKNNRPDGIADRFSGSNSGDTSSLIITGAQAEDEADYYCSSLDSTGFQVFFGAGTKLTVL | 3.0 µM | 3/3 |

Repeated from above, the 2 best binders with a signal in all replicates:

VL,Kd,detected
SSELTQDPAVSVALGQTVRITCEGMSLRYFYANWYQQKPGQAPILVIYGKNNRPSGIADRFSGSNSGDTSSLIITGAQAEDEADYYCSSRDSSGFQVFFGAGTKLTVL,4.2 nM,3/3
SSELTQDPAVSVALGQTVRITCEGPSLRYYYANWYQQKPGQAPILVIYGKNNRPSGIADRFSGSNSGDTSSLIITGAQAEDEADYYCSSRWSSGFQVFFGAGTKLTVL,110 nM,3/3

Parent in this assay: reference entry 200 nM, copy in this library 180 nM. Background: pairings of library AAYL52 with three empty control strains gave a value in 28% of cases (median 8.2 µM, 5th percentile 800 nM). Values in that range, when seen in few replicates, are hard to tell from nonspecific mating.

The measurements come from Engelhart et al. 2022 (doi:10.1038/s41597-022-01779-4) through the FLAb antibody collection.